Test results as given in paper PMC6182421, “De novo coiled-coil peptides as scaffolds for disrupting protein–protein interactions” (Chemical Science, 2018).

Sequences of proteins named here, by UniProt entry; tags and fusion partners are left off. Residues count along the entry.
UniProt Q07820, 173-327 limits assumed: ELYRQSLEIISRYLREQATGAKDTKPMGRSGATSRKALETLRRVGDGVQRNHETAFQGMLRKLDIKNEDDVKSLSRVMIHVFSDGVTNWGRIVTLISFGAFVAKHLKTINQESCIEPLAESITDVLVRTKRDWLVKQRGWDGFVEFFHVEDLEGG

Molecular target: T1, MCL-1/FITC-BID (Homo sapiens, UniProt Q07820)
T1 construct: made in house
Test: Fluorescence anisotropy competition assay, MCL-1/FITC-BID
Format: binding

IC50: 375 ± 22 nM
Compound: CC[C@H](C)[C@H](NC(=O)[C@H](CCCNC(=N)N)NC(=O)[C@H](CCCNC(=N)N)NC(=O)[C@H](CC(C)C)NC(=O)[C@H](CCC(N)=O)NC(=O)[C@H](C)NC(=O)[C@H](C)NC(C)=O)C(=O)NCC(=O)N[C@@H](CC(=O)O)C(=O)N[C@@H](CCCCN)C(=O)N[C@H](C(=O)N[C@@H](CC(N)=O)C(=O)N[C@@H](CC(C)C)C(=O)N[C@@H](CCCNC(=N)N)C(=O)N[C@@H](CCC(N)=O)C(=O)N[C@@H](CCCCN)C(=O)N[C@@H](CC(C)C)C(=O)N[C@@H](CC(C)C)C(=O)N[C@@H](CC(N)=O)C(N)=O)C(C)C [wt NOXA-B, reference compound]
